Experimental data taken from US20100279329A1, “METHOD FOR THE STABILISATION OF PURIFIED P-GLYCOPROTEIN” (UNIVERSITY OF BRIGHTON, priority 2007, published 2010).

Chains of the proteins cited; added tags and fusions are not shown.
UniProt P08183, whole entry: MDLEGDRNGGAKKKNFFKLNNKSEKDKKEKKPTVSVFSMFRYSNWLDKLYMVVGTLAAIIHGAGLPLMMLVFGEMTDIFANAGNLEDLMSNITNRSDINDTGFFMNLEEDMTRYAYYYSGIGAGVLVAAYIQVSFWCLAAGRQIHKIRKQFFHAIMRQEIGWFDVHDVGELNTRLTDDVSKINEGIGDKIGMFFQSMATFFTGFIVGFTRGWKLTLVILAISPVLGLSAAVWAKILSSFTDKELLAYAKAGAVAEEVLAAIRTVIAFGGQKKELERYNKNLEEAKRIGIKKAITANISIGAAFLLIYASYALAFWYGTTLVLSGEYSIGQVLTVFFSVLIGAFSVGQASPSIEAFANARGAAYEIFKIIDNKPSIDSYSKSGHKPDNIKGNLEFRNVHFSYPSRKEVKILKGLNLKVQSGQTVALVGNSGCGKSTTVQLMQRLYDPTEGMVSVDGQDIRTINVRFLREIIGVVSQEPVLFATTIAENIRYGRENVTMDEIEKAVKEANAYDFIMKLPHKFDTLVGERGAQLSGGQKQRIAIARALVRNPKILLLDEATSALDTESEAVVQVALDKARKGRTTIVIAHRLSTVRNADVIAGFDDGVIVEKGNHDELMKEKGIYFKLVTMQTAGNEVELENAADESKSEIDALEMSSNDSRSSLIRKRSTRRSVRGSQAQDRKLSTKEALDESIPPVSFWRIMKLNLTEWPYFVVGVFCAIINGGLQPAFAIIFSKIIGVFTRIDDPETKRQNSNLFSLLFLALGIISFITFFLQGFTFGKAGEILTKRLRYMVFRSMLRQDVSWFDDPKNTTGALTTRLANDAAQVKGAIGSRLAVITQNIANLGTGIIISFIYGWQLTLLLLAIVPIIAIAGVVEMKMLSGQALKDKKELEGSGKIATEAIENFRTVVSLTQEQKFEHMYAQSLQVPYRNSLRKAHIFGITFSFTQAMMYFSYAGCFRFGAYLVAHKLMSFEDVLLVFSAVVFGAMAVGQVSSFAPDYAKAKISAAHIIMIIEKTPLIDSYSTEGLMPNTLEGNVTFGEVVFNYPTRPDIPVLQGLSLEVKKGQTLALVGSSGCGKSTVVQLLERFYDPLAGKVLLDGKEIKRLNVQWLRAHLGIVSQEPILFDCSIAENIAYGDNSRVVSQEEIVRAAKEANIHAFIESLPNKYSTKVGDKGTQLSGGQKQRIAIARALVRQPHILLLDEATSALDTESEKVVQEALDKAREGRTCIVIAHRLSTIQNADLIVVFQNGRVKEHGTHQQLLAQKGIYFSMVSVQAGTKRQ

Biological target: P-glycoprotein (P-gp) (Homo sapiens, UniProt P08183)
Test: ATPase activity, varying drug concentration at constant ATP concentration (dose response)
Conditions: 2 mM ATP, glycerol purified P-gp
From the text: The assay was set up, conducted and read in conditions identical to those described above. […] The equation for the general dose response curve is given below (Equation 2).
Equation 2: The general dose response curve equation, where • V=rate of hydrolysis expressed as μmol/min/mg Pi, • Vmax=maximum rate of hydrolysis, • Vmin=minimum rate of hydrolysis, • [D]=concentration of drug, and • EC50=concentration of drug required to produce half maximum rate of hydrolysis.
The highest concentration was similar to that found in the reaction volume of an ATPase assay when a 20% (w/v) buffer was used (10 mM-300 mM). […] Both varying ATP and varying drug assays were performed.

EC50 (EC50 of nicardipine stimulated ATPase activity (maltose experiment), FIG. 20, curves without and with 300 mM maltose): 30 µM | EC50 (EC50 of nicardipine stimulated ATPase activity in the presence of trehalose, 300 mM trehalose (FIG. 12)): 19.2 µM | EC50 (EC50 of nicardipine stimulated ATPase activity, absence of trehalose): 24.2 µM
SMILES: COC(=O)C1=C(C)NC(C)=C(C(=O)OCCN(C)Cc2ccccc2)C1c1cccc([N+](=O)[O-])c1 (stereo not drawn) [nicardipine, reference compound]
